The experiment concerns FLT3-ITD-F691L-D835Y Ba/F3 cells. The experiment is described as follows: In vivo life-span (survival) in mouse AML model. The following applies: po; for Median survival: qd. The procedure: Nude mice (5-6 weeks old)(Orient) were purchased and used after a week. Mice were anesthetized following IACUC approved animal protocol. FLT3-ITD F691L-D835Y, luc+ Ba/F3 cell (Established in-house) suspension (in 0.1 mL RPMI1640 (Welgene) of 1.0×10^6 cells) was injected into tail vein intravenously using a 29-G needle, and an tail mark was added to each animal for identification. After 6 days, the luminescence intensity was measured using IVIS (Perkin Elmer) to calculate the ROI intensity.
Each compound solution was prepared freshly just before administration. Compounds were administered orally using a mouse sondae once a day, 0.1 mL per mouse. Mice were humanely euthanized if animals experience 20% body weight loss.

As to `CC(C)(C)c1cc(NC(=O)Nc2ccc(-c3cn4c(n3)sc3cc(OCCN5CCOCC5)ccc34)cc2)no1` [AC220, Quizartinib, reference compound], the Median survival is given as 12 (15 mpk) and 13 (30 mpk). Besides, for the setting “qd, 15, 30 mg/kg”, the “life-span of the mouse model (in words)” value is reported as “almost same life span as the vehicle control”.

For the origin of these results see patent US10442796B2, “2,3,5-substituted thiophene compound as protein kinase inhibitor” (KOREA INSTITUTE OF SCIENCE AND TECHNOLOGY, priority 2016, dated 2019).
